These results are taken from patent US10035819B2, “PPAR agonists and methods of use thereof” (The Salk Institute for Biological Studies, priority 2014, dated 2018).

The chains behind the UniProt entries cited, without tags or fusion partners. Where a name states a change or a piece, a line headed by the entry shows the natural chain unless it says otherwise.
UniProt Q03181, whole entry: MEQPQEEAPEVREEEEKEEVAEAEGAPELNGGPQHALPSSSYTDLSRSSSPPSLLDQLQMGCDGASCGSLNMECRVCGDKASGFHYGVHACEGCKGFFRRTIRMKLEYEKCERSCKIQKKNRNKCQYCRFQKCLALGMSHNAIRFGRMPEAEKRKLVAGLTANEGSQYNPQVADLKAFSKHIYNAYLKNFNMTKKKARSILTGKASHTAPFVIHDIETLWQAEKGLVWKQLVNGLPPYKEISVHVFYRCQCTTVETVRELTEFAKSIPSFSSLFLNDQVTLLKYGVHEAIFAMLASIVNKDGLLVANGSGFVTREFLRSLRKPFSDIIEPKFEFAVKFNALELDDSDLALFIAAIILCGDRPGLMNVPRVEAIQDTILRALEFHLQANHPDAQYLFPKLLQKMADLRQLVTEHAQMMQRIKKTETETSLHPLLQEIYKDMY

The target in the assay is PPARδ (Homo sapiens, UniProt Q03181). Briefly: Nuclear Hormone Receptor (NHR) protein interaction assay (PathHunter), agonist format. The format is cell-based. Conditions: read-out: NHR protein interaction assay, EC50 (nM) for PPARδ, PathHunter NHR cell line.

As for `CC(C)N(Cc1ccccc1OCCCCC(=O)O)C(=O)c1ccc(-c2ccco2)cc1`, the EC50 came to 113 nM. Under `CC(C)N(Cc1ccccc1OCCOCCC(=O)O)C(=O)c1ccc(-c2ccco2)cc1` stands 392 nM.

By EC50 is commonly meant the concentration that produces a half-maximal response.
